Source: ChEMBL document CHEMBL2311248, “Discovery of potent myeloid cell leukemia 1 (Mcl-1) inhibitors using fragment-based methods and structure-based design” (J Med Chem, 2013)
pKi: −log10 of the molar value.

What follows are compounds tested against Induced myeloid leukemia cell differentiation protein Mcl-1 (Homo sapiens, UniProt Q07820).

SMILES	pKi
Cc1cc(OCCCc2c(C(=O)O)[nH]c3cc(Cl)ccc23)ccc1Cl	6.72
O=C(O)c1[nH]c2ccccc2c1CCCOc1ccc(Oc2ccccc2)cc1	5.19
Cc1cc(OCCCc2c(C(=O)O)sc3cccc(Cl)c23)cc(C)c1Cl	5.89
O=C(O)c1cc2c(Br)cc(Cl)cc2o1	4.05
O=C(O)c1[nH]c2ccccc2c1CCCOc1cccc(-c2ccccc2)c1	5.11
Cc1ccccc1OCCCc1c(C(=O)O)[nH]c2ccccc12	4.82
O=C(O)c1[nH]c2ccccc2c1CCCOc1ccccc1C(F)(F)F	5.06
CCc1cc(OCCCc2c(C(=O)O)[nH]c3ccccc23)ccc1Cl	5.96
O=C(O)c1sc2cccc(Cl)c2c1Cl	4.66
O=C(O)c1[nH]c2cc(Cl)ccc2c1CCCOc1cccc2ccccc12	7.12
Cc1ccc2c(Cl)c(C(=O)O)sc2c1	4.40
Cc1cc(OCCCc2c(C(=O)O)[nH]c3ccccc23)ccc1Cl	6.42
Cc1c(C(=O)O)oc2ccc(Cl)cc12	4.28
O=C(O)c1[nH]c2ccccc2c1CCCOc1cccc(Oc2ccccc2)c1	5.28
O=C(O)c1[nH]c2ccccc2c1CCCOc1ccc(Cl)c2ccccc12	6.32
O=C(O)c1sc2cccc(Cl)c2c1CCCOc1cccc2ccccc12	5.80
O=C(O)c1[nH]c2ccccc2c1CCCOc1cccc2c1CCCC2	6.52
O=C(O)c1[nH]c2ccccc2c1CCCOc1ccc2ccccc2c1	5.12
O=C(O)c1sc2ccccc2c1Cl	3.88
Cc1cc(OCCCc2c(C(=O)O)n(C)c3ccccc23)cc(C)c1Cl	6.74

SMILES	pKi
Cn1c(C(=O)O)cc2cc(Br)ccc21	4.09
O=C(O)c1sc2c(Cl)cccc2c1CCCOc1cccc2ccccc12	6.14
Cc1cccc(OCCCc2c(C(=O)O)[nH]c3ccccc23)c1	5.72
Cc1c(C(=O)O)oc2c(C)cccc12	3.99
O=C(O)c1[nH]c2ccccc2c1CCCOc1ccc(C(F)(F)F)cc1	5.00
Cn1c(C(=O)O)cc2ccccc21	3.80
O=C(O)c1sc2cc(Cl)ccc2c1Cl	4.23
Cc1ccc(OCCCc2c(C(=O)O)[nH]c3ccccc23)cc1	4.80
O=C(O)c1oc2ccc(Cl)cc2c1CCCOc1cccc2ccccc12	5.60
Cc1cccc2c(-c3ccccc3)c(C(=O)O)[nH]c12	3.87
Cn1c(C(=O)O)c(CCCOc2cccc3ccccc23)c2ccccc21	6.59
Cc1cc(OCCCc2c(C(=O)O)sc3c(Cl)cccc23)cc(C)c1Cl	6.12
Cc1cc(OCCCc2c(C(=O)O)[nH]c3cccc(Cl)c23)cc(C)c1Cl	6.80
Cc1cc(OCCCc2c(C(=O)O)oc3ccccc23)cc(C)c1Cl	5.52
Cc1cc(OCCCc2c(C(=O)O)[nH]c3ccccc23)cc(C)c1Cl	6.52
Cc1cc(OCCCc2c(C(=O)O)[nH]c3cccc(Cl)c23)ccc1Cl	6.09
Cc1cc(OCCCc2c(C(=O)O)sc3cc(Cl)ccc23)cc(C)c1Cl	6.60
Cc1c(C(=O)O)oc2cc(Cl)ccc12	4.64
O=C(O)c1[nH]c2ccccc2c1CCCOc1ccc(Cl)cc1	5.01
